Measured values: PubChem BioAssay AID492956 (The Scripps Research Institute Molecular Screening Center, 2010)
This is a selection; strong and weak results do not stand in their true shares. Some salts and complexes are drawn in separate pieces, as the source files them; their charges need not balance. Calls of active or inactive are those of the source.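 How the source made its calls: active means inhibition above the mean over all tested compounds plus 3 SD (cut at about 30% in these data); inactive means the rest.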

Each molecule was assayed against Platelet-activating factor acetylhydrolase 2, cytoplasmic (Homo sapiens) (UniProt Q99487) (assay: inhibition of cytoplasmic PAF acetylhydrolase 2 – biochemical, fluorescence polarization, human, primary screen (AID 492956;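 further: inhibitors block probe labeling of enzyme so polarization drops; 0% = enzyme with DMSO and 100% = wells lacking PAFAH2 protein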)). Settings: recombinant PAFAH2, FP-rhodamine activity probe, at 3.39 µM, stronger effect = higher value.

Compound | inhibition
CCN(CC)CCCOC(=O)C(O)(c1ccccc1)c1ccccc1 | inactive: 5.19%
O=[N+]([O-])c1ccc2c(c1)C=Nc1ccccc1O2 | inactive: 0.79%
Cc1cccc(C)c1OP(C)(N)=O (stereo not given) | inactive: -0.3%
CC(C)(C)c1ccc(OP(C)(=O)Nc2ccc(SC(F)(F)F)cc2)cc1 (stereo not given) | inactive: -14.8%
O=[N+]([O-])c1cc([N+](=O)[O-])c(Nc2cccnc2)c([N+](=O)[O-])c1 | inactive: -3.5%
Cc1cc(C)cc(OP(C)(N)=O)c1 (stereo not given) | inactive: -5.09%
COc1ccc(OP(C)(=O)Nc2cccc(F)c2)cc1 (stereo not given) | inactive: -3.59%
COc1ccccc1OP(C)(=O)Nc1cc(Cl)ccc1C (stereo not given) | inactive: 0.14%
Cc1ccc(NP(C)(=O)Oc2ccccc2)c(C)c1 (stereo not given) | inactive: -2.13%
COc1ccccc1OP(C)(=O)Nc1ccc(C)cc1 (stereo not given) | inactive: 2.5%
CCOC(=O)c1ccc(NP(C)(=O)Oc2ccccc2)cc1 (stereo not given) | inactive: -3.71%
CP(=O)(Nc1ccccc1Br)Oc1ccccc1 (stereo not given) | inactive: -2.13%
COc1ccccc1OP(C)(=O)Nc1ccccc1 (stereo not given) | inactive: 3.76%
CP(=S)(Nn1cnnc1)Oc1ccccc1 (stereo not given) | inactive: -4.06%
Cc1cc(C)cc(OP(C)(=O)Nc2ccc(SC(F)(F)F)cc2)c1 (stereo not given) | inactive: 4.84%
CCc1ccc(OP(C)(=O)N2CCN(c3ccc([N+](=O)[O-])cc3)CC2)cc1 (stereo not given) | inactive: -0.1%
CP(=O)(NC(=O)Nc1ccccc1)Oc1ccccc1 (stereo not given) | inactive: -1.67%
CP(=O)(Oc1ccccc1)OC(c1ccccc1)C(F)(F)F (stereo not given) | inactive: 18.8%
Cc1cccc(C)c1OP(C)(=O)Nc1ccc(SC(F)(F)F)cc1 (stereo not given) | inactive: 4.01%
CP(=O)(Nc1ccccn1)Oc1ccc(Cl)cc1 (stereo not given) | inactive: 3.07%
CCOC(=O)c1ccc(NP(C)(=O)Oc2ccc(OC)cc2)cc1 (stereo not given) | inactive: 2.86%
CCOP(C)(=S)SCC(=O)NC(C)C(=O)O (stereo not given) | inactive: -0.23%
O=[N+]([O-])c1cc([N+](=O)[O-])c(-n2nnc3ccccc32)c([N+](=O)[O-])c1 | inactive: -12.7%

Compound | inhibition
Cc1nc2ccc3ccccc3c2s1.O=[N+]([O-])c1cc([N+](=O)[O-])c(O)c([N+](=O)[O-])c1 | inactive: -8.77%
O=[N+]([O-])c1cc([N+](=O)[O-])c(-c2cnn(-c3ccccc3)c2)c([N+](=O)[O-])c1 | inactive: -5.04%
CCOC(=O)C(CC)C1=NC(C)(C)Cc2ccccc21.O=[N+]([O-])c1cc([N+](=O)[O-])c(O)c([N+](=O)[O-])c1 (stereo not given) | inactive: -1.23%
O=[N+]([O-])c1cc([N+](=O)[O-])c(Nc2nnnn2CCO)c([N+](=O)[O-])c1 | inactive: -6%
CC1=C2N=C(C=C3N=C(C(C)=C4[N-][C@@](C)([C@@H]5N=C1[C@](C)(CCC(=O)NC[C@@H](C)OP(=O)([O-])O[C@H]1[C@@H](O)[C@@H](n6cnc7cc(C)c(C)cc76)O[C@@H]1CO)[C@H]5CC(N)=O)[C@@](C)(CC(N)=O)[C@@H]4CCC(N)=O)[C@@](C)(CC(N)=O)[C@@H]3CCC(N)=O)C(C)(C)[C@@H]2CCC(N)=O.[C-]#N.[Co+3] | inactive: 6.73%
CP(=O)(Nc1ccc(SC(F)(F)F)cc1)Oc1ccccc1 (stereo not given) | inactive: -0.82%
CCCOc1ccc(NP(C)(=O)Oc2ccc(Cl)cc2)cc1 (stereo not given) | inactive: 2.81%
CN1CCCCC1COC(=O)C1(O)c2ccccc2CCc2ccccc21 (stereo not given) | inactive: 1.89%
COc1ccccc1OP(C)(=O)Nc1c(C)cccc1C (stereo not given) | inactive: 3.08%
O=C(O)c1cccc(Nc2c([N+](=O)[O-])cc([N+](=O)[O-])cc2[N+](=O)[O-])c1 | inactive: -13.7%
CC1=NCCc2c1[nH]c1ccccc21.O=[N+]([O-])c1cc([N+](=O)[O-])c(O)c([N+](=O)[O-])c1 | inactive: -3.02%
CCOC(=O)c1ccc(NP(C)(=O)Oc2cc(C)cc(C)c2)cc1 (stereo not given) | inactive: -0.37%
Cc1cc(C)cc(OP(C)(=O)Nc2ccc(C)cc2C)c1 (stereo not given) | inactive: 12.2%
COc1ccccc1OP(C)(=O)Nc1cccc(Br)c1 (stereo not given) | inactive: 0.58%
Cc1ccc(C)c(NP(C)(=O)Oc2ccccc2)c1 (stereo not given) | inactive: 0.07%
CP(=O)(Nc1cccc(Br)c1)Oc1ccccc1 (stereo not given) | inactive: -1.9%
Cc1cc(C)cc(OP(C)(=O)Nc2ccccn2)c1 (stereo not given) | inactive: 3.19%
CP(=O)(Nc1ccccc1F)Oc1ccccc1 (stereo not given) | inactive: -9.09%
CC(C)c1ccc(OP(C)(=O)Nc2ccc(SC(F)(F)F)cc2)cc1 (stereo not given) | inactive: 5.1%
COc1ccc2c(c1O)-c1c(O)c(OC)cc3c1[C@H](C2)[N+](C)(C)CC3.O=[N+]([O-])c1cc([N+](=O)[O-])c([O-])c([N+](=O)[O-])c1[O-] | inactive: 1.69%
O=C(OC1CN2CCC1CC2)c1ccc([N+](=O)[O-])cc1 (stereo not given) | inactive: -1.56%
O=C(OCCN1CCN(CCOCc2ccccc2)CC1)C(O)(c1ccccc1)c1ccccc1 | inactive: 0.79%
